Columns and labels:
[1] = DRUGMATRIX: Sodium Channel, Site 2 radioligand binding (ligand: [3H] Batrachotoxin); conditions: strain Wistar, Brain
[2] = DRUGMATRIX: Glutamate, NMDA, Agonism radioligand binding (ligand: [3H] CGP-39653); conditions: strain Wistar, Cerebral cortex
[3] = DRUGMATRIX: Imidazoline I2, Central radioligand binding (ligand: [3H] Idazoxan); conditions: strain Wistar, Cerebral cortex
Cytochrome P450 3A4 = Cytochrome P450 3A4 (Homo sapiens, UniProt P08684); experiment: DRUGMATRIX: CYP450, 3A4 enzyme inhibition (substrate: 7-Benzyloxy-4-(trifluoromethyl)-coumarin); conditions: bti-tn-5b1-4; note: in other assays of this panel Not Active means under 50% inhibition at 10 µM
[4] = DRUGMATRIX: Glutamate, Kainate radioligand binding (ligand: [3H] Kainic acid); conditions: strain Wistar, Brain
[5] = DRUGMATRIX: Purinergic P2X radioligand binding (ligand: [3H] alpha, beta-Methylene-ATP); conditions: strain New Zealand albino, Urinary bladder
[6] = DRUGMATRIX: beta-Lactamase enzyme inhibition (substrate: Nitrocefin)
[7] = DRUGMATRIX: Glutamate, NMDA, Phencyclidine radioligand binding (ligand: [3H] TCP); conditions: strain Wistar, Cerebral cortex
[8] = DRUGMATRIX: GABAA, Muscimol, Central radioligand binding (ligand: [3H] Muscimol); conditions: strain Wistar, Brain
[9] = DRUGMATRIX: ATPase, Na+/K+ enzyme inhibition (substrate: ATP); conditions: Heart
[10] = DRUGMATRIX: GABAA, Chloride Channel, TBOB radioligand binding (ligand: [3H] TBOB); conditions: strain Wistar, Cerebral cortex
[11] = DRUGMATRIX: Glutamate, AMPA radioligand binding (ligand: [3H] AMPA); conditions: strain Wistar, Cerebral cortex
[12] = DRUGMATRIX: Phosphodiesterase PDE3 enzyme inhibition (substrate: [3H]cAMP + cAMP); conditions: platelet
[13] = DRUGMATRIX: Sigma2 radioligand binding (ligand: [3H] Ifenprodil); conditions: strain Wistar, Brain
[14] = DRUGMATRIX: Serotonin (5-Hydroxytryptamine) 5-HT3 radioligand binding (ligand: [3H] GR-65630); conditions: hek293
[15] = DRUGMATRIX: GABAA, Flunitrazepam, Central radioligand binding (ligand: [3H] Flunitrazepam); conditions: strain Wistar, Brain
[16] = DRUGMATRIX: Phorbol Ester radioligand binding (ligand: [3H] PDBu); conditions: strain ICR, Brain
[17] = DRUGMATRIX: Sodium/nucleoside co-transporter radioligand binding (ligand: nitrobenzylthioinosine); conditions: strain Dunkin-Hartley, Cerebral cortex

CN(C(=O)Cc1ccc(Cl)c(Cl)c1)C1CCC2(CCCO2)CC1N1CCCC1 (stereo not given)
IC50 [1]: 3.09 µM
IC50 [2]: Not Active
Ki [2]: Not Active
IC50 [3]: Not Active
Ki [3]: Not Active
IC50 (Cytochrome P450 3A4): Not Active
Ki (Cytochrome P450 3A4): Not Active
IC50 [4]: Not Active
Ki [4]: Not Active
IC50 [5]: Not Active
Ki [5]: Not Active
IC50 [6]: Not Active
Ki [6]: Not Active
IC50 [7]: Not Active
Ki [7]: Not Active
IC50 [8]: Not Active
Ki [8]: Not Active
IC50 [9]: Not Active
Ki [9]: Not Active
IC50 [10]: Not Active
Ki [10]: Not Active
IC50 [11]: Not Active
Ki [11]: Not Active
IC50 [12]: Not Active
Ki [12]: Not Active
IC50 [13]: Not Active
Ki [13]: Not Active
IC50 [14]: Not Active
Ki [14]: Not Active
IC50 [15]: Not Active
Ki [15]: Not Active
IC50 [16]: Not Active
Ki [16]: Not Active
IC50 [17]: Not Active
Ki [17]: Not Active

From ChEMBL document CHEMBL1909046, “DrugMatrix in vitro pharmacology data”
